Columns and labels:
Settings in all cases: SUD4
[1] = biological target: T1, Transcriptional regulator Kaiso (Homo sapiens) (UniProt Q86T24)
T1 sequence (whole entry): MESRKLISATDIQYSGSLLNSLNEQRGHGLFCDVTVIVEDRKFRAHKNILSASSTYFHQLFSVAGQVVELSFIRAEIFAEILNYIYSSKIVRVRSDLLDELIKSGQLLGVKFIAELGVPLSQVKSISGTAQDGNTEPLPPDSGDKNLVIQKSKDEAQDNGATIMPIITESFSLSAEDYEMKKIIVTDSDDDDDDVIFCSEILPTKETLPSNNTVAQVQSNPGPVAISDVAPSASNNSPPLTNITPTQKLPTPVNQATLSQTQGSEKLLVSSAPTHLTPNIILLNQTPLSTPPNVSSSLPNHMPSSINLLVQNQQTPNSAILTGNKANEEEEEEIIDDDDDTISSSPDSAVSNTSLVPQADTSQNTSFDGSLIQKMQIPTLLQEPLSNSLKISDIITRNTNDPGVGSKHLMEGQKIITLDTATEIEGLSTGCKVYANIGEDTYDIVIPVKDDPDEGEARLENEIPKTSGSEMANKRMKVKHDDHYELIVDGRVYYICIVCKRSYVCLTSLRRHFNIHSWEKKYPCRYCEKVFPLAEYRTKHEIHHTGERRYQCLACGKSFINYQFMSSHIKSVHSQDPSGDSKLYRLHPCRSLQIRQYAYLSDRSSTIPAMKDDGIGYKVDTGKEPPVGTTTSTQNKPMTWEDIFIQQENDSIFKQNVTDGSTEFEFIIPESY

[2] = biological target: T2, Zinc finger and BTB domain-containing protein 9 (Homo sapiens) (UniProt Q96C00)
T2 sequence (whole entry): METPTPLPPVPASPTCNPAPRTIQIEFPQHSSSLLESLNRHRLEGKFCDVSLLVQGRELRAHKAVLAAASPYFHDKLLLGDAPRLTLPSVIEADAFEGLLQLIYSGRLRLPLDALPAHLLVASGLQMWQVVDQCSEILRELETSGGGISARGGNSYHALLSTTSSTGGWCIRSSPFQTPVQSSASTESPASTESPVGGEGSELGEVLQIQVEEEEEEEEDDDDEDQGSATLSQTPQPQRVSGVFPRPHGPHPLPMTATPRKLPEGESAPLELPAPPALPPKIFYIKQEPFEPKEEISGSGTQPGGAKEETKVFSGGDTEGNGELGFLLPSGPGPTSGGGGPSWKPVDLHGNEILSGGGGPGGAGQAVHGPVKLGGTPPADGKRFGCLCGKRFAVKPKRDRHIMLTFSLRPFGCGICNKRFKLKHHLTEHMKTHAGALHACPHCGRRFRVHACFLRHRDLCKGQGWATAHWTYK

[3] = biological target: T3, Zinc finger and BTB domain-containing protein 11 (Homo sapiens) (UniProt O95625)
T3 sequence (whole entry): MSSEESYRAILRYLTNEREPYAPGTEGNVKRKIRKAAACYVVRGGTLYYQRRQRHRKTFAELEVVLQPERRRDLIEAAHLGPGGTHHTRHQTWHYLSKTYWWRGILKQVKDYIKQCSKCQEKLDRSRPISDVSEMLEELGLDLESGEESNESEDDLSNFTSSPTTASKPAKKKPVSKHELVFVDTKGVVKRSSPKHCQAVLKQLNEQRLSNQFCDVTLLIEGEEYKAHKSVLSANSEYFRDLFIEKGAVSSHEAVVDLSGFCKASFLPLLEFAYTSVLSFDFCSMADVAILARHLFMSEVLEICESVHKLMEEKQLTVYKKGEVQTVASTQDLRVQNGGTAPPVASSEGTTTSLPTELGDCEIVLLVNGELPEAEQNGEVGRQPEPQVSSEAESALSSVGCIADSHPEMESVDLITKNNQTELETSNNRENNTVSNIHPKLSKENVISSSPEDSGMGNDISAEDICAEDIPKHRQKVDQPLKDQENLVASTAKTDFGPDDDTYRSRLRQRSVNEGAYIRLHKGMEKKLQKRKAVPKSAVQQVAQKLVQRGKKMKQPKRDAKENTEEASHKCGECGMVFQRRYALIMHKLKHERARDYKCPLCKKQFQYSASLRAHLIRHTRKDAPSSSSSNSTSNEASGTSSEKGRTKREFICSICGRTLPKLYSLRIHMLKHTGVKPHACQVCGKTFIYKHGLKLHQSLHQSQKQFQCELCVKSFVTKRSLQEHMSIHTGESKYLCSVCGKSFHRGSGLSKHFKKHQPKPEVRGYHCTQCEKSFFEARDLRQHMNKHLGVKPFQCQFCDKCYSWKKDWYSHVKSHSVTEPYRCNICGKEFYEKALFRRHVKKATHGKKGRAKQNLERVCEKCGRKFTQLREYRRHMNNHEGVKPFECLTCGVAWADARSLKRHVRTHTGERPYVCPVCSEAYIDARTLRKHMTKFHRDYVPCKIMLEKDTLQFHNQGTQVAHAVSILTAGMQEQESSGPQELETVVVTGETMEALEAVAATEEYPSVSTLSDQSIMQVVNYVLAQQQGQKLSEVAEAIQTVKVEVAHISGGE

Normalized abundances for DMSO [1]: 2180 | Normalized abundances for compound [1]: 2140 | Normalized abundances for DMSO [2]: 964 | Normalized abundances for compound [2]: 950 | Normalized abundances for DMSO [3]: 2810 | Normalized abundances for compound [3]: 2720
SMILES: C[C@@H]1CN(c2ncc(Cl)c(Nc3ccc4c(c3)n(CCC(C)(C)O)c(=O)n4C)n2)C[C@H](C)C1(F)F
